Legend:
Mu-type opioid receptor = Mu-type opioid receptor (Homo sapiens, UniProt P35372); assay: Displacement of [3H]naloxone from human mu opioid receptor
Nociceptin receptor = Nociceptin receptor (Homo sapiens, UniProt P41146); assay: Displacement of [3H]-orphanin FQ from human OrphaninFQ (hOFQ) receptor
[1] = target: Delta-type opioid receptor (Homo sapiens, UniProt P41143); assay: Displacement of [3H]-naloxone from Opioid receptor delta 1
[2] = target: Kappa-type opioid receptor (Homo sapiens, UniProt P41145); assay: Displacement of [3H]naloxone from human kappa opioid receptor

SMILES	Log Ki (Mu-type opioid receptor)	Log Ki (Nociceptin receptor)	Log Ki [1]	Log Ki [2]
Cc1cc(C)cc(N2CNC(=O)C23CCN(C2Cc4cccc5cccc2c45)CC3)c1 (centres undefined)	-7.7	-8	–	–
O=C1NCN(c2ccc(Cl)cc2)C12CCN(C1Cc3cccc4cccc1c34)CC2 (centres undefined)	-7.5	-8.8	< -6.3	-7.1
O=C1NCN(c2cccc(Br)c2)C12CCN(C1Cc3cccc4cccc1c34)CC2 (centres undefined)	-7.9	-8.4	< -6.3	-7.1
O=C1NCN(c2ccc(F)cc2)C12CCN(C1Cc3cccc4cccc1c34)CC2 (centres undefined)	-7.6	-8.8	< -6.3	-7.2
COc1cccc(N2CNC(=O)C23CCN(C2Cc4cccc5cccc2c45)CC3)c1 (centres undefined)	-7.4	-7.8	–	–
Cc1cccc(N2CNC(=O)C23CCN(C2Cc4cccc5cccc2c45)CC3)c1 (centres undefined)	-8	-8.4	< -6.3	-7.7
COc1ccc(N2CNC(=O)C23CCN(C2Cc4cccc5cccc2c45)CC3)cc1 (centres undefined)	–	-7	–	–
O=C1NCN(c2cccc(C(F)(F)F)c2)C12CCN(C1Cc3cccc4cccc1c34)CC2 (centres undefined)	-8.1	-8	–	–
O=C1NCN(c2cccc(F)c2)C12CCN(C1Cc3cccc4cccc1c34)CC2 (centres undefined)	-8.4	-9.5	-6.8	-7.9
O=C1NCN(c2cccc(Cl)c2)C12CCN(C1Cc3cccc4cccc1c34)CC2 (centres undefined)	-7.7	-8.9	-6.8	-7.3
O=C1NCN(c2ccccc2F)C12CCN(C1Cc3cccc4cccc1c34)CC2 (centres undefined)	-6.4	-7.4	–	-6.8
